Values of other authors in patent US9675592B2, “Methods and compositions for bacteria infections” (priority 2013, dated 2017).

Tests used:
Conditions in all cases: cited from earlier work
[1] = system: hetero VISA isolate, hVISA 2275
[2] = system: vanA containing VRSA strain VRS1
[3] = system: vancomycin intermediate resistant Staphylococcus aureus strain, VISA 2283

Compound: CCN(CC)CCOc1ccc(C(=C(Cl)c2ccccc2)c2ccccc2)cc1 [Clo, Clomiphene]
- fold decrease Van MIC [1]: 2 fold and 4 fold
- fold decrease Van MIC [2]: 2 fold and 4 fold
- fold decrease Van MIC [3]: 2 fold

“And” between values parts separate entries of the source, which are not always exact repeats. Equal entries are not always repeated.
